Source: PubChem
Hits are enriched below; roughly 16% of the tested compounds scored in any of these assays.
DT40 TDP1 no CPT = qHTS for Inhibitors of human tyrosyl-DNA phosphodiesterase 1 (TDP1): qHTS in cells in absence of CPT; 420,000 compounds, 15% hits; Potency, µM (titrated, usually from 46.2 µM), for inactives: top-dose activity change, negative = growth inhibition, actives largely listed as inhibitors; DT40 Tdp1-/- hTDP1 cells, no CPT, ATP luminescence, 48 h; AID 686978, 2013; further: potency means the concentration at half of the fitted maximal effect; on the % scale 0 is the no-effect control and ±100 the full control effect; nearly all actives have a fitted effect of over 55% in size
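Compound effects on proliferation are scored in DT40 Tdp1-/-;hTDP1 cells in the absence of CPT. ATP levels (CellTiter-Glo luminescence) are recorded after a ≥48 hr, 37 °C incubation.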
miR-21 reporter = raises the signal of a miR-21 reporter | Potency, µM (doses to about 38.3 µM), for inactives: top-dose reporter change, positive = more light | HeLa miR-21 FLuc reporter, luciferase, 48 h | AID 2288 | 340,000 tested, under 10 active; active = well fitted rising curve with a large enough effect; inconclusive = small, poorly fitted or top-dose-only effect; inactive = no such curve, though single readings can be large or run the other way;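 also: % of control where 0% means no effect; miR-21 action dims this reporter so a rising signal means less miR-21 action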
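Using DMEM plus 10% FBS, HeLa miR-21-FLuc cells are incubated with test compounds (final up to about 40uM) for 48 hours; firefly luciferase signal is then imaged following reagent-mediated lysis.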
uPA generation = cell surface uPA generation inhibition; AID 540303; cell surface uPA generation assay, qHTS; Potency, µM (series often up to 38.3 µM), for the others: at the highest dose activity change, negative = inhibition, most hits filed as inhibitors; 330,000 compounds, 0.31% hits; active means well fitted inhibition curve with a large enough effect; inconclusive means small, poorly fitted or top-dose-only effect; inactive means no such curve, though single readings can be large or run the other way; tested in mouse RAW 264.7 cells; further: potency means the concentration at half of the fitted maximal effect; on the % scale 0 is the no-effect control and ±100 the full control effect; nearly all actives have a fitted effect of over 55% in size
DT40 TDP1 CPT = growth inhibition of DT40 Tdp1-/-;hTDP1 cells with camptothecin (screen for TDP1 inhibitors) | chicken DT40 Tdp1-/-;hTDP1 cells + 20 nM CPT, ATP luminescence, 48 h | Potency, µM (titrated, usually from 46.2 µM), inactives show top-dose activity change, negative = growth inhibition, most hits filed as inhibitors | 420,000 compounds, 12% hits; further: potency means the concentration at half of the fitted maximal effect; on the % scale 0 is the no-effect control and ±100 the full control effect; nearly all actives have a fitted effect of over 55% in size
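Chicken DT40 Tdp1-/- cells stably complemented with human TDP1 were seeded at 400 cells/well in medium containing 20 nM camptothecin, exposed to pin-transferred compounds, and grown at 37 °C for at least 48 hr. Viability was read as ATP luminescence.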
TDP1 block = inhibitors of human tyrosyl-DNA phosphodiesterase TDP1; 350,000 compounds, 0.28% hits; Q9NUW8; recombinant TDP1, AlphaScreen DNA substrate cleavage; Potency, µM (doses to about 130 µM), inactives show at the highest dose activity change, negative = inhibition, usual class: inhibitors; further: potency means the concentration at half of the fitted maximal effect; on the % scale 0 is the no-effect control and ±100 the full control effect; nearly all actives have a fitted effect of over 40% in size
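Steps: enzyme plus compound, 15 min RT; add biotin/phosphotyrosine-FITC oligonucleotide (15 nM final), react 5 min; add donor/acceptor beads (10 ug/ml final), 10 min; read AlphaScreen. Tdp1 at 1 nM final.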
The depositor's hits bear a star; ? = inconclusive; . = no result; [ ] = remark or other dose. Unless noted, the call rests on the fitted dose curve; in most records, active means well fitted curve in the direction sought with a large enough effect; inconclusive means small, poorly fitted or top-dose-only effect, or another doubt; inactive means no such curve, though single readings can be large; an effect the other way counts as inactive or inconclusive.

mol | miR-21 reporter | DT40 TDP1 no CPT | DT40 TDP1 CPT | uPA generation | TDP1 block
COc1cccc(CNC(=O)c2sc3ncccc3c2-n2c(C)ccc2C)c1OC | 30.0% | 13µM* | 10.3µM* | . | 6.5%
COc1cccc(CNC(=O)C2CCCN(c3nnc(-n4c(C)ccc4C)s3)C2)c1OC (configuration not stated) | -4.2% | ? | ? | . | 10.1%
O=C1OC2C(O)COC23OC(O)CCC13O (configuration not stated) | . | 19.0% | 2.5% | . | .
COc1cc(C2C(C#N)=C(SC)NC3=C2C(=O)CCC3)ccc1O (configuration not stated) | 7.2% | -4.7% | 3.6% | 0.7% | -1.2%
CCc1ccccc1NC(=O)CSC1=C(C#N)C(c2ccc(O)c(OC)c2)C2=C(CCCC2=O)N1 (configuration not stated) | 18.7% | 23.1µM* | 20.6µM* | -2.0% | 4.4%
CC(C)Sc1nc2c(c(=O)n1-c1ccc(F)cc1)SCC2 | -14.6% | -28.7% | -26.3% | -1.3% | 6.8%
Cc1nc2scc(C)n2c(=O)c1S(=O)(=O)Nc1ccc(N2CCN(S(C)(=O)=O)CC2)cc1 | 18.7% | 18.4µM* | 23.1µM* | -12.7% | 0.6%
CC(=O)c1ccc(NS(=O)(=O)c2c(C)nc3scc(C)n3c2=O)cc1 | -2.6% | -11.5% | -23.5% | . | 0.0%[12.3 µM]
CCOC(=O)CC(S(=O)(=O)c1ccccc1)S(=O)(=O)c1ccccc1 | . | 0.651µM* | 0.581µM* | . | .
CN(CC(=O)Nc1ccc(F)cc1)C(=O)c1ccccc1OCc1ccc(F)cc1 | 4.1% | -21.0% | ? | 11.7% | 2.9%
Nc1nnc(SCC(=O)NNC(=O)c2ccccc2F)s1 | . | -15.6% | 0.9% | -5.7% | -0.6%
CCOc1cc(C2c3c(oc4cc(C)c(Cl)cc4c3=O)C(=O)N2Cc2ccco2)ccc1O (configuration not stated) | -10.7% | 16.4µM* | 18.4µM* | . | 2.0%
Cc1cc(C)c2c(=O)c3c(oc2c1)C(=O)N(Cc1ccc(F)cc1)C3c1cccc(O)c1 (configuration not stated) | ? | 11.6µM* | 23.1µM* | . | 2.3%
Cc1ccc2oc3c(c(=O)c2c1)C(c1cccc(O)c1)N(Cc1ccccc1Cl)C3=O (configuration not stated) | -1.8% | 18.4µM* | ? | . | 4.2%
O=C1c2oc3ccc(Cl)cc3c(=O)c2C(c2cccc(Br)c2)N1CCO (configuration not stated) | -9.8% | ? | 25.9µM* | 16.4% | 3.2%
O=C1CCCN1c1ccc(S(=O)(=O)N2CCC(c3ccccc3)CC2)cc1 | -0.5% | ? | ? | 5.2% | 6.2%
CCOC(=O)C1CCN(S(=O)(=O)CCNC(=O)c2ccc(F)cc2)CC1 | . | -2.4% | -2.3% | 0.6% | 8.9%
COc1ccc(CCNC(=O)CCC(=O)c2cccs2)cc1OC | . | -1.0% | -9.8% | 13.1% | .
Cc1ccccc1N1CCN(C(=O)CCN2C(=O)c3ccccc3C2=O)CC1 | -11.6% | -26.2% | -15.4% | 2.3% | 7.9%
COc1cccc(-c2noc(CCCC(=O)Nc3ccc(C(N)=O)cc3)n2)c1 | -6.8% | ? | ? | 3.1% | 0.0%
Cc1ccc2oc3c(c(=O)c2c1)C(c1ccc(O)cc1)N(CCCN(C)C)C3=O (configuration not stated) | -27.9% | 15.1% | -10.8% | . | -1.1%
Cc1ccc(CN2C(=O)c3oc4ccc(C)cc4c(=O)c3C2c2ccc(O)cc2)cc1 (configuration not stated) | -5.1% | ? | 16.4µM* | . | 3.2%
CSc1ccc(C2c3c(oc4cc(C)cc(C)c4c3=O)C(=O)N2CCO)cc1 (configuration not stated) | -22.2% | 23.1µM* | ? | . | 0.0%
Cc1ccc2oc3c(c(=O)c2c1)C(c1cccc(Br)c1)N(Cc1ccco1)C3=O (configuration not stated) | -3.8% | 20.6µM* | ? | 11.8% | 2.0%
c1ccc(CNc2cc(-c3cccnc3)ncn2)cc1 | . | -14.5% | -5.8% | . | .
COc1ccc(CNC(=O)C(=O)NCC(c2cccs2)S(=O)(=O)c2ccc(F)cc2)cc1 (configuration not stated) | 13.9% | ? | ? | . | -7.8%
CCOC(=O)NC1(C(F)(F)F)NC(=O)N(c2ccc(F)cc2)C1=O (configuration not stated) | 0.6% | -5.8% | -2.0% | 3.6% | -1.4%
CCCn1c(SCC(=O)c2cc(C)ccc2C)n[nH]c1=O | 4.4% | -22.8% | -17.1% | -2.0% | 5.1%
CC(C)CCNC(=O)C1CC(c2ccccc2[N+](=O)[O-])=NO1 (configuration not stated) | . | -30.0% | ? | 5.3% | .
CCC(=O)Nc1c(-c2ccc(C)cc2)nc2ccc(C)cn12 | 2.7% | 0.8% | -1.9% | -1.3% | .
CC(C)(C)CC(C)(C)Nc1c(-c2ccc(O)cc2)nc2cnccn12 | . | 25.9µM* | 18.4µM* | . | .
Cc1ccc2nc(-c3ccc(F)cc3)c(NC(C)(C)CC(C)(C)C)n2c1 | -2.0% | 8.2µM* | 16.4µM* | . | 3.2%
CCCCN(C(=O)CC1CCCC1)c1c(N)n(CCC)c(=O)[nH]c1=O | . | -7.0% | -19.1% | -9.8% | 1.2%
Cc1cccc(N2C(=O)/C(=C\c3ccc(C(=O)O)cc3)c3ccccc3C2=O)c1 | 1.1% | ? | 18.4µM* | 2.5% | 4.7%
Cc1c2cnn(CC(=O)Nc3c(F)c(F)cc(F)c3F)c(=O)c2c(C)n1Cc1ccc(F)cc1 | -2.3% | . | . | . | -9.3%
ClCc1ncc(-c2ccc(Cl)cc2)o1 | 14.4% | 16.4µM* | 14.6µM* | -4.0% | 6.0%
CC(=O)c1cccc(NC(=O)c2sc(-n3nc(C)c(Cc4ccc5c(c4)OCO5)c3C)nc2C)c1 | -5.8% | 14.6µM* | 14.6µM* | . | -0.5%
CS(=O)(=O)c1oc(-c2ccc(F)cc2)nc1S(=O)(=O)c1ccc(Cl)cc1 | ? | 0.82µM* | 0.581µM* | . | 0.0%
Cc1ccc(S(=O)(=O)c2nc(-c3ccc(F)cc3)oc2SCC(N)=O)cc1 | -8.5% | -9.1% | -0.4% | -0.9% | 0.0%
CCS(=O)(=O)c1oc(-c2ccc(F)cc2)nc1S(=O)(=O)c1ccc(Br)cc1 | ? | 1.16µM* | 0.92µM* | . | 7.4%
CSc1oc(-c2ccc(F)cc2)nc1S(=O)(=O)c1ccc(F)cc1 | -2.1% | 23.1µM* | 14.6µM* | 0.6% | 6.1%
CSc1oc(-c2ccccc2)nc1S(=O)(=O)c1ccc(F)cc1 | 4.3% | -19.3% | -22.1% | -9.0% | -4.2%
Cn1c(CNC(=O)c2ccc3c(c2)OCO3)nnc1SCC(=O)Nc1ccccc1Cl | 5.7% | 22.0% | 4.2% | 0.7% | 3.8%
CCOC(=O)N1CCC(NC(=O)c2c(C)nn(-c3cccc(C)c3)c2-n2cccc2)CC1 | 9.9% | 18.4µM* | 20.6µM* | . | 10.5%

Random excerpt: 4 entries already listed
mol | miR-21 reporter | DT40 TDP1 no CPT | DT40 TDP1 CPT | uPA generation | TDP1 block
CC(=O)c1cccc(NC(=O)c2sc(-n3nc(C)c(Cc4ccc5c(c4)OCO5)c3C)nc2C)c1 | -5.8% | 14.6µM* | 14.6µM* | . | -0.5%
Cc1ccc2nc(-c3ccc(F)cc3)c(NC(C)(C)CC(C)(C)C)n2c1 | -2.0% | 8.2µM* | 16.4µM* | . | 3.2%
CCOC(=O)C1CCN(S(=O)(=O)CCNC(=O)c2ccc(F)cc2)CC1 | . | -2.4% | -2.3% | 0.6% | 8.9%
COc1ccc(CCNC(=O)CCC(=O)c2cccs2)cc1OC | . | -1.0% | -9.8% | 13.1% | .

Results in DT40 TDP1 no CPT and TDP1 block (2 entries from above):
SMILES | DT40 TDP1 no CPT | TDP1 block
CCCCN(C(=O)CC1CCCC1)c1c(N)n(CCC)c(=O)[nH]c1=O | -7.0% | 1.2%
CC(=O)c1cccc(NC(=O)c2sc(-n3nc(C)c(Cc4ccc5c(c4)OCO5)c3C)nc2C)c1 | 14.6µM* | -0.5%
